Test system: NCI-H226
Experiment: Tested for in vitro tumor cell growth inhibition of non-small cell lung cancer cell line NCI-H226
Type: functional
Settings: Homo sapiens

- GI50: 23.4 µM
SMILES: CC(=O)Nc1ccc2nc(-c3cccc(F)c3)cc(O)c2c1

From ChEMBL document CHEMBL1127857, “Antitumor agents. 155. Synthesis and biological evaluation of 3',6,7-substituted 2-phenyl-4-quinolones as antimicrotubule agents” (J Med Chem, 1994)
